# Binding of CDR-mutated scFvs to a peptide of the spike HR2 region

Data: MIT Lincoln Laboratory AlphaSeq set, Engelhart et al. 2022, doi:10.1038/s41597-022-01779-4, as distributed in FLAb.

Binding partner: SARS-CoV-2 spike HR2 peptide, sequence PDVDLGDISGINAS.

Parent: Ab-91, a human scFv built as VL, a (GGGGS)3 linker, VH. Only the CDRs of the heavy chain vary.
VL: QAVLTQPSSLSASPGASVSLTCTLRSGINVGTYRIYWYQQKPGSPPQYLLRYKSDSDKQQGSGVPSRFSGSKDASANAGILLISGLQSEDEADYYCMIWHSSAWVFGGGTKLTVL
VH: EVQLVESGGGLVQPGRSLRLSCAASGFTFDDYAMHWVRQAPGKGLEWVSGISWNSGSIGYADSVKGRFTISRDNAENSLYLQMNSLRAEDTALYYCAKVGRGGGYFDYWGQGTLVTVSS

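AAYL51 was designed without a model: most single CDR substitutions and a random sample of double and triple ones. In AlphaSeq, yeast of one mating type display the scFv and yeast of the other type display the target. Binding brings cells together so that they mate, and sequencing counts the barcode pairs among the diploids. The ratio of observed to expected reads was calibrated, replicate by replicate, on BCL2-family standards whose Kd was known from biolayer interferometry. There are three technical replicates.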

Substitutions are numbered in sequence along the VH above, starting at 1 (not Kabat).
Affinities are written as log10 Kd with Kd in nM; a lower number is a better binder.
"nd" marks a missing value. The strain was present, yet no cells mated with the target were sequenced in that replicate, which points to weak or no binding.
Parent in this assay: reference entry 1.86, copy in this library 0.88.
As a blank, each scFv also met three strains without target: over library AAYL51, 21% of these pairings were detected, typically at 4.54 and seldom below 3.26. The control count says in how many pairings with the empty strains this scFv gave a signal.

The variant F29Q D30H D107R showed nd, 4.52, nd (controls 2 of 9).
The variant D62H G100M R101I showed nd, 4.16, nd (controls 0 of 9).
The variant F27W F29K I51K showed nd, nd, 2.81 (controls 0 of 9).
The variant G26W H35M V99E showed 6.42, 5.74, 5.62 (controls 1 of 9).
The variant M34H G59L showed nd, nd, 4.41 (controls 2 of 9).
The variant G26S S57P G102D showed 4.84, nd, nd (controls 5 of 9).
The variant A33G G50A S63V showed nd, 4.13, nd (controls 3 of 9).
The variant G100V G102V showed nd, nd, nd (controls 1 of 9).
The variant S57R D62N G103E showed 4.32, nd, nd (controls 1 of 9).
The variant G102N showed nd, 4.91, nd (controls 1 of 9).
The variant A33H W53F Y105A showed 4.96, 5.07, 3.65 (controls 0 of 9).
The variant D30L I58V showed nd, 5.42, 5.06 (controls 5 of 9).
The variant G26Y Y32I I58R showed nd, 4.26, 4.54 (controls 3 of 9).
The variant M34L R101H D107V showed 4.33, 4.86, 4.47 (controls 8 of 9).
The variant N54D G100Y Y108P showed nd, nd, nd (controls 0 of 9).
The variant S52N W53F Y105P showed nd, nd, nd (controls 1 of 9).
The variant F29R A33S S52A showed nd, nd, nd (controls 0 of 9).
The variant Y32G I58S K65V showed 2.20, 2.61, 2.06 (controls 2 of 9).
The variant N54A S55G G100M showed 4.99, 5.15, 5.61 (controls 9 of 9).
The variant H35Y R101I F106N showed 3.90, 4.38, nd (controls 4 of 9).
The variant I58V V99W F106G showed 5.66, nd, nd (controls 1 of 9).
The variant M34E Y60F showed 3.57, nd, nd (controls 0 of 9).
The variant Y32K I51W I58E showed nd, nd, nd (controls 0 of 9).
The variant D30R D31P S55T showed nd, 4.29, nd (controls 0 of 9).
The variant F106C D107Q showed 0.92, 0.95, 0.59 (controls 1 of 9).
The variant D30C W53Y F106S showed nd, nd, nd (controls 1 of 9).
The variant G50C K65M G104D showed nd, nd, nd (controls 2 of 9).
The variant V64N D107A showed 5.06, 6.22, 5.19 (controls 3 of 9).
The variant Y60F A61V G100V showed 5.48, 5.78, nd (controls 4 of 9).
The variant M34Y H35P F106C showed 4.80, 6.20, nd (controls 6 of 9).
The variant G102W D107M showed nd, nd, nd (controls 0 of 9).
The variant G26P F29T V99H showed 3.34, nd, nd (controls 1 of 9).
The variant G59T V64I D107S showed 4.76, nd, nd (controls 2 of 9).
The variant D31H K65M Y105F showed 0.72, 0.59, 0.04 (controls 5 of 9).
The variant A61P V99L Y108F showed nd, 5.56, 6.09 (controls 8 of 9).
The variant S52R S63T showed 3.42, nd, nd (controls 3 of 9).
The variant Y32V K65T D107P showed 2.16, 2.22, 2.09 (controls 3 of 9).
The variant H35G G50H A61R showed nd, nd, nd (controls 0 of 9).
The variant A33D G50Q G104I showed nd, nd, 4.82 (controls 2 of 9).
The variant T28N D62Q G104W showed 3.15, 2.29, 1.99 (controls 1 of 9).
The variant D31R V64T G104K showed nd, nd, nd (controls 0 of 9).
The variant S63F G100M G104M showed 4.94, nd, 5.49 (controls 3 of 9).
The variant G104N Y105S D107C showed 4.23, nd, nd (controls 8 of 9).
The variant Y32S G56M S57M showed 3.05, 3.38, 3.03 (controls 2 of 9).
The variant H35N S55P G100A showed nd, nd, nd (controls 0 of 9).
The variant G102S Y108F showed nd, nd, nd (controls 3 of 9).
The variant I58P G59E D62Y showed nd, nd, nd (controls 1 of 9).
The variant W53R I58N S63I showed 3.62, 3.96, 4.76 (controls 1 of 9).

Picked from the list: the 3 lowest averages where every replicate gave a value.

changes	log10 Kd (nM) by replicate	control signals
D31H K65M Y105F	0.72, 0.59, 0.04	5/9
F106C D107Q	0.92, 0.95, 0.59	1/9
Y32V K65T D107P	2.16, 2.22, 2.09	3/9